The values below are quoted from earlier work in publication PMC12299506, “Flipping the Target: Evaluating Natural LDHA Inhibitors for Selective LDHB Modulation” (Molecules, 2025).

For the data set, the target named is LDHB. Also noted: method as in PMID 2073051, PMID 9497046, PMID 11377399. The note with it: cited from earlier work.

`Cc1cc2c(C(C)C)c(O)c(O)c(C=O)c2c(O)c1-c1c(C)cc2c(C(C)C)c(O)c(O)c(C=O)c2c1O` [gossypol, Gossypol]: the Ki is 1400 nM.
